Assay results from patent US20230339878A1, “SLC26A3 INHIBITORS AND USE THEREOF” (THE REGENTS OF THE UNIVERSITY OF CALIFORNIA, priority 2018, published 2023).

The chains behind the UniProt entries cited, without tags or fusion partners.
UniProt Q9WVC8, whole entry: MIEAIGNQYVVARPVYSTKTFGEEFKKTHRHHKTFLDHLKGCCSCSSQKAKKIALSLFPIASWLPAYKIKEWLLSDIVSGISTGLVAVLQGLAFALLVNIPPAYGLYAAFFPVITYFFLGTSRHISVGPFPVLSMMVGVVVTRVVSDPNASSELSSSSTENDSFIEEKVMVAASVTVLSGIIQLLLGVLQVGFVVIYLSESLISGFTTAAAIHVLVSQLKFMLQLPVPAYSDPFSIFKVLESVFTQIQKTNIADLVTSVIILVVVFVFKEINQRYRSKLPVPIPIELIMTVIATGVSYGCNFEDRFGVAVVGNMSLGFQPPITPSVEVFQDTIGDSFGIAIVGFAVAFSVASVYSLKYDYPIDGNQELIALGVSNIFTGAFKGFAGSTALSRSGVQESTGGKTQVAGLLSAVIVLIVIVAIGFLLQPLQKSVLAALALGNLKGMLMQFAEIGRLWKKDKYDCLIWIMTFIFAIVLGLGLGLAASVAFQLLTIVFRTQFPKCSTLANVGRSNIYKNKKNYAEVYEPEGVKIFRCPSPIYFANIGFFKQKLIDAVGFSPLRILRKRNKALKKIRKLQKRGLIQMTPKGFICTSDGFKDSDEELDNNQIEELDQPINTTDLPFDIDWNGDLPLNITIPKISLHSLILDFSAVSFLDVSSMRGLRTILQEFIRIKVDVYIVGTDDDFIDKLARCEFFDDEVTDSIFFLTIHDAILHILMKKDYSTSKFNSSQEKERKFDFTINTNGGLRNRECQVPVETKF

Molecular target: murine slc26a3 (Mus musculus, UniProt Q9WVC8)
Test: slc26a3-mediated Cl-/I- exchange, YFP fluorescence quenching in FRT-YFP-slc26a3 cells
Format: cell-based
Details: read-out: IC50 for inhibition of slc26a3-mediated Cl-/I- exchange

IC50: 9 µM
SMILES: O=C(CSc1nccn1-c1ccc(F)cc1)Nc1ccc(Br)cc1
